This is an account of results in article PMC5624946, “Extrapyramidal side effects of antipsychotics are linked to their association kinetics at dopamine D2 receptors” (Nature Communications, 2017).

The chains behind the UniProt entries cited, without tags or fusion partners. Where a name states a change or a piece, a line headed by the entry shows the natural chain unless it says otherwise.
UniProt P14416, whole entry: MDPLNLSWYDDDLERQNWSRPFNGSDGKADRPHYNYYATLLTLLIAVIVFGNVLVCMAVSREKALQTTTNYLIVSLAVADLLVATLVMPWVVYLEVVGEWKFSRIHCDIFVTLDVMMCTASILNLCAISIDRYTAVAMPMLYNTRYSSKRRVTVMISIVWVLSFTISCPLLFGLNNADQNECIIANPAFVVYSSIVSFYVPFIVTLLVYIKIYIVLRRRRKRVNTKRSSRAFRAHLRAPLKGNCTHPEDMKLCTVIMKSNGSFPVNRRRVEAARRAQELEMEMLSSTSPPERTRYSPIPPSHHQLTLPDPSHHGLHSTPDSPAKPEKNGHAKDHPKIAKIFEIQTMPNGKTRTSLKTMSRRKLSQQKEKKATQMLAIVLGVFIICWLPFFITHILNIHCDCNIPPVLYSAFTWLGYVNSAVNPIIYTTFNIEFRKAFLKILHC

Where a name gives a salt, the structure may show the parent alone.

As usually defined, the Ki is the dissociation constant of the complex between target and ligand, obtained from inhibition or displacement. Read a high Ki as lower affinity. As a reminder, the Kd is the constant that tells how readily two partners part at equilibrium. A low value points to a tighter complex.

Series [1] addresses T1, human D2L receptors (Homo sapiens, UniProt P14416). Briefly: Equilibrium competition binding with PPHT-red (TR-FRET). (In general: TR-FRET usually uses a lanthanide donor and a delayed reading to cut background.)
The target in series [2] is T1, human D2L receptors. Briefly: biochemical.
The target of series [3] is T1, human D2L receptors. Briefly: Competition kinetic binding with PPHT-red tracer (TR-FRET, Motulsky-Mahan). Conditions: dissociation half-life from k off.

On to `CCN1CCC[C@H]1CNC(=O)c1c(O)c(Cl)cc(Cl)c1OC` [Raclopride, raclopride], for which the Ki in series [1] is 1.23 nM. The affinity in series [2], expressed as Kd, was 0.832 nM. In the case of `CSc1ccc2c(c1)N(CCC1CCCCN1C)c1ccccc1S2` (stereo not drawn) [Thioridazine, thioridazine hydrochloride], in series [3], the “t 1/2” value amounted to 29.4 s.
